We go through 24 molecules from published antibiotic growth screens (doi:10.1038/s41589-023-01349-8).

Some of the results follow.

The assay deals with A. baumannii ATCC 17978. The assay can be described thus: relative growth (fraction of control); higher = less inhibition. Conditions: 50 µM.
Turning to `O=C(CN1CCOCC1)NCC[C@H]1CC[C@H](NS(=O)(=O)c2ccc(Cl)cc2)[C@H](CO)O1`, the relative growth is 1.09. In the case of `CCCCCCCCCCCCC[N+](C)(C)Cc1ccccc1.O.[Cl-]`, the relative growth worked out at 0.197.

Take `CC(C)CC#Cc1ccc2c(c1)O[C@@H](CN(C)Cc1cncnc1)[C@@H](C)CN([C@@H](C)CO)S2(=O)=O`: the relative growth is 0.815. `O=C1NCC(=O)N2[C@@H]1C[C@@H](C(=O)O)[C@H]2c1ccc(O)cc1` gave a relative growth of 0.959. Take `Cn1cnc(S(=O)(=O)N[C@@H]2CC[C@H](CC(=O)NCC3CC3)O[C@H]2CO)c1`: the relative growth turned out to be 0.97. `CO[C@H]1CN(C)C(=O)c2ccc(NS(=O)(=O)c3ccccc3)cc2OC[C@H](C)N(C(=O)NC(C)C)C[C@H]1C`: the relative growth is 1.15. Regarding `O=C(CN1CCOCC1)NCC[C@H]1CC[C@H](NS(=O)(=O)c2ccc(Cl)cc2)[C@@H](CO)O1`, the relative growth came to 1.07. Molecule `COc1cc(C)c(C(=O)O)c(O)c1` gave a relative growth of 0.975.

Regarding `C=CCNc1ncnc2c1cnn2C`, the relative growth is 1.17. In the case of `CC(=C\c1ccccc1)/C(C)=N/O` it was 0.91; in that of `Cc1cccc(S(=O)(=O)N2C[C@@H](O)COC[C@H]3O[C@H](CC(=O)NCc4ccc5c(c4)OCO5)CC[C@@H]32)c1`, 0.883. In turn, `CN(C)CC(=O)N[C@H]1CC[C@@H](CCNS(=O)(=O)c2ccccc2)O[C@@H]1CO` had a relative growth of 0.983.

Take `CC(=O)Nc1c(O)[nH]c(SCC(=O)N2CCOCC2)nc1=O`: the relative growth came out at 1.08. As to `COc1ccc(S(=O)(=O)N2CCO[C@@H]2CNC(=O)C(=O)NCc2ccncc2)cc1`, the relative growth was found to be 1.01.

In turn, `COc1ccccc1C#Cc1cnc2c(c1)C(=O)N([C@@H](C)CO)C[C@H](C)[C@H](CN(C)C(=O)c1ccc3c(c1)OCO3)O2` displayed a relative growth of 0.851. Molecule `O=C(C[C@@H]1CC[C@H]2[C@@H](COC[C@H](O)CN2C(=O)c2ccncc2)O1)NC1CCC1` displayed a relative growth of 0.981. Turning to `CCOC(=O)Nc1ccc(C)s1`, the relative growth worked out at 0.965. `Nc1ccn(C2CSC(CO)O2)c(=O)n1` (centres undefined) had a relative growth of 1.13. In the case of `Cc1c(Cl)cccc1Nc1ccccc1C(=O)O` it was 0.942. In the case of `COC(=O)Cc1csc(CC(N)=O)n1` it was 1.04.

`C[C@@H]1CN([C@@H](C)CO)S(=O)(=O)c2ccc(C#CC3CC3)cc2O[C@@H]1CN(C)Cc1ccc(F)cc1` came in with a relative growth of 1.13.

Regarding `C=CCC[C@H](Cc1ccc(F)cc1)C(=O)O[C@@H](CNC(=O)[C@@H](CC=C)CC(=O)N[C@H](CO)Cc1ccccc1)c1ccccc1`, the relative growth worked out at 0.864.

`CC(C)C[C@](O)(C(=O)OCc1ccc(O[C@@H]2O[C@H](CO)[C@@H](O)[C@H](O)[C@H]2O)cc1)[C@@H](O)C(=O)OCc1ccc(O[C@@H]2O[C@H](CO)[C@@H](O)[C@H](O)[C@H]2O)cc1` displayed a relative growth of 0.997. In turn, `CC(CN)(Cc1ccccc1Cl)C(=O)O` (centres undefined) registered a relative growth of 1.01.
